By UniProt entry, the sequences of proteins in these tests, tags left out. Residues count along the entry.
UniProt O42275, 24-633: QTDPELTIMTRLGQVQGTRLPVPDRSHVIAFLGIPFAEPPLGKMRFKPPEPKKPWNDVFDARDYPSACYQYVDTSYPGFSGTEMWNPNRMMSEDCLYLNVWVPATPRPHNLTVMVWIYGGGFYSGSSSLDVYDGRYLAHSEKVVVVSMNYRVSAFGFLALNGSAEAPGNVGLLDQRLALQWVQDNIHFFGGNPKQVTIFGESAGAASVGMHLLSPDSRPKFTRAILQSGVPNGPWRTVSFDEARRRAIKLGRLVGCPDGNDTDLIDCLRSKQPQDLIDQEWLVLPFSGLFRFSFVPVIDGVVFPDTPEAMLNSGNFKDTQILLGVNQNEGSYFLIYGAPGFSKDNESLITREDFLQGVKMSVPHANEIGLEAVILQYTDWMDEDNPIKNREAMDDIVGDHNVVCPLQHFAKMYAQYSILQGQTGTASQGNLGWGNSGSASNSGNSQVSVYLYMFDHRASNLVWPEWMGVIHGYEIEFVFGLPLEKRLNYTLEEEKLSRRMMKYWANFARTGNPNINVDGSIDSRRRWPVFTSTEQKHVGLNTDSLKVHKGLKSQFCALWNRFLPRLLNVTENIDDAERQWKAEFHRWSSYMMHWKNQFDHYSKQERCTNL

In patent US4806537A (City of Hope, priority 1988, dated 1989):

Experiments:
K^+ transport = experiment: K^+ transport: ^86 Rb uptake by P3 membrane fractions of whole mouse brain; assay type: biochemical, Swiss mice
Acetylcholinesterase = target: T1, Acetylcholinesterase (Electrophorus electricus, UniProt O42275); experiment: Acetylcholinesterase activity, acetylthiocholine substrate, colorimetric (Ellman); assay type: biochemical, electric eel
T1 construct: The enzyme employed was prepared from the electric organ of the electric eel; from tissue; host or cells: electric organ of the electric eel

Nc1c2ccccc2nc2ccccc12 [9-aminoacridine]
K^+ transport inhibition activity relative to amodiaquin (in words) (K^+ transport; fraction of amodiaquin's activity): approximately one-half | K^+ Transport Relative Potency (K^+ transport; relative to amodiaquin = 1): 0.57 | Concentration inhibiting K^+ transport (selection criterion met) (K^+ transport; submillimolar concentrations): ≤ 10^-3 M | IC50 (Acetylcholinesterase): 45 nM | Cholinesterase inhibitory potency relative to amodiaquin (in words) (Acetylcholinesterase; fraction of amodiaquin's inhibitory potency): less than one-tenth | Concentration inhibiting acetylcholinesterase (selection criterion met) (Acetylcholinesterase; micromolar or lower concentrations): ≤ 10^6 M | Acetylcholinesterase Activity Rank Order (Acetylcholinesterase; rank among the five substances): 2 | Acetylcholinesterase Activity Relative Potency (Acetylcholinesterase; relative to amodiaquin = 1): 0.089
